Results on 1 substance are retold here after patent publication US10792311B2, “Stimulation of ovarian follicle development and oocyte maturation” (The Board of Trustees of the Leland Stanford Junior …, priority 2011, dated 2020).

In general, half-life refers to how long it takes for the measured level to halve.

In data set [1] the test system is somatic cells obtained from day 10 ovaries. Put plainly: Cell proliferation (MTS) assay of ovarian somatic cells. The class given is cell-based, mice. The settings on record: agent alone, 2 days. As for the experimental part:
Cell proliferation assay: Ovaries obtained from day 10 mice were digested with collagenase I, DNase, and trypsin. After centrifuging at 270×g for 10 min., cell pellet was washed and plated in a 96-well plate (BD Falcon, Franklin Lakes, N.J.) in McCoy's 5a medium (Gibco BRL, Grand Island, N.Y.) containing 4 mg/ml BSA (Sigma Aldrich Chemicals, St. Louis, Mo.), penicillin-streptomycin (Gibco) and sodium pyruvate (Gibco) for 3 h at 37 C. After washing twice with PBS to remove floating oocytes, cells were cultured in serum-free McCoy's 5a medium containing different factors for 48 h. MTS (3-(4,5-dimethylthiazol-2-yl)-5-(3-carboxymethoxyphenyl)-2-(4-sulfophenyl)-2H-tetrazolium) assay was performed using Cell Titer 96 Aqueous One Solution Cell Proliferation Assay (Promega, Madison, Wis.) by adding the substrate for 2 h before measuring absorbance at 490 nm.

For data set [2], the system named is canonical Wnt signaling pathway. Put plainly: TCF-luciferase assay in cultured ovarian somatic cells. The class given is cell-based. The settings on record: somatic cells of day 10 mice, agent alone, 18 h. As for the experimental part: TCF-luciferase assay: Ovarian somatic cells from day 10 mice were cultured overnight at 37 C in McCoy's 5a medium containing 10% fetal bovine serum (FBS; Gibco) before evaluation of Wnt signaling based on the TCF-luciferase assay. Cells were transfected with 1 μg of pTOP FLASH or pFOP FLASH plasmid together with 0.1 μg of pRL-TK plasmid using lipofectamine 2000 (Invitrogen, Carlsbad, Calif.) for 6 h. After culturing in McCoy's 5a medium containing 10% FBS overnight, cells were cultured in serum-free medium for 8 h and treated with R-spondin2, Wnt3a, and/or FSH for 18 h. Luciferase activity expressed as relative light unit was determined using a Dual Luciferase Reporter Assay Kit (Promega) with a luminometer (Bio-Rad).
Treatment with R-spondin2 stimulated the canonical Wnt signaling pathway and proliferation of ovarian somatic cells To monitor the activation of the canonical Wnt signaling pathway, somatic cells were obtained from ovaries of day 10 mice and transfected with TCF-luciferase reporter plasmids before treatment with R-spondin2, Wnt3a, and/or FSH for 18 h. Luciferase activity was measured as an index of Wnt signaling. […] To estimate the number of viable cells, cells were also cultured with increasing doses of R-spondin2 with or without Wnt3a before measurement of mitochondrial reductase (MTS) activity.

The subject of data set [3] is ovaries from day 10 mice. As to the kind of experiment: Ovarian explant cultures treated with CNP and/or FSH. The class given is cell-based. As for the experimental part: Ovarian explant cultures: Ovaries from day 10 mice were placed on culture plate inserts (Millipore, Bedford, Mass.) and cultured in 400 μl of DMEM/F12 containing 0.1% BSA (Sigma), 0.1% Albumax II, insulin-transferrin-selenium, 0.05 mg/ml L-ascorbic acid and penicillin-streptomycin under the membrane insert to cover ovaries with a thin layer of medium. Ovaries were treated with CNP and/or FSH with media changes every 2 days for 4 days. Some explants were also treated with a pan-specific protein kinase G inhibitor, Rp-8-Br-PET-cGMPS (BioLog, Bremen, Germany). At the end of culture, ovaries were fixed in Bouin's solution, paraffin embedded, and cut into continuous sections before staining with hematoxylin and eosin.

Data set [4] relates to ovaries from day 10 mice. Put plainly: Ovarian explant cultures treated with R-spondin2 and/or FSH. The data set is classed as cell-based. As for the experimental part: Ovarian explant cultures: Ovaries from day 10 mice were placed on culture plate insert (Millipore, Bedford, Mass.) and cultured in 400 μl of DMEM/F12 (Gibco) containing 0.1% BSA (Sigma), 0.1% Albumax II (Gibco), insulin-transferrin-selenium (Gibco), 0.05 mg/ml L-ascorbic acid (Sigma) and penicillin-streptomycin (Gibco) under the membrane insert to cover ovaries with a thin layer of medium. […] Explants treated with non-immune IgG or boiled (100 C, 15 min) R-spondin2 antibodies served as negative controls. At the end of culture, ovaries were fixed in Bouin's solution, paraffin embedded, and cut into continuous sections before staining with hematoxylin and eosin. Only follicles with clearly stained oocyte nucleus were counted to prevent recounting of the same follicle.

For data set [5] the following is noted: native FSH; cited from earlier work.
Setting [6] is: treatment with R-spondin2 and/or FSH.

For the substance “FSH: Follicle-stimulating hormone, a dimeric glycoprotein”, the “MTS activity (viable cell number)” value in data set [1] is “increased the viable cell numbers”. Further, the TCF-luciferase activity entry in data set [2] is reported as “ineffective”. Further, in the data set with ovaries from day 10 mice [3] (4 days culture), the “Development of preantral follicles (histological analyses)” value was “promoted the development of preantral follicles”. Further, the “Ovarian weights of explants” value in the data set with ovaries from day 10 mice [3] (day 10 ovaries, 4 days culture) was “increased ovarian weights”. For the same substance, in the data set on ovaries from day 10 mice [3] (real-time RT-PCR, 2 and 4 days after treatment), the NPPC transcript levels entry is on record as “increases in NPPC transcript levels”. Also, the NPRB transcript levels result in the data set on ovaries from day 10 mice [3] (real-time RT-PCR, explant culture) was “no changes in NPRB transcript levels”. Further, the “Ovarian follicle development (morphological analyses)” value with ovaries from day 10 mice [4] (4 days culture) is “promotion of ovarian follicle development”. For the same substance, in the data set on ovaries from day 10 mice [4] (setting [6]), the “Percentage of primordial and degenerated follicles” value is reported as “negligible changes”; the “Ratio of primary and percentage of secondary follicles” value was “decreased the ratio of primary follicles accompanied by increases in the percentage of secondary follicles”. For the same substance, the half-life in data set [5] was 3 to 4 h.
